# Assay results published in patent US6583179B2, “Substituted aminoalkylamide derivatives as antagonists of follicle stimulating hormone” (Ortho-McNeil Pharmaceutical, Inc., priority 1999, dated 2003).
# Protein sequences, listed by entry. Tags and fused reporters are not part of them. Residues count along the entry.
# UniProt P23945, 18-695 limits assumed: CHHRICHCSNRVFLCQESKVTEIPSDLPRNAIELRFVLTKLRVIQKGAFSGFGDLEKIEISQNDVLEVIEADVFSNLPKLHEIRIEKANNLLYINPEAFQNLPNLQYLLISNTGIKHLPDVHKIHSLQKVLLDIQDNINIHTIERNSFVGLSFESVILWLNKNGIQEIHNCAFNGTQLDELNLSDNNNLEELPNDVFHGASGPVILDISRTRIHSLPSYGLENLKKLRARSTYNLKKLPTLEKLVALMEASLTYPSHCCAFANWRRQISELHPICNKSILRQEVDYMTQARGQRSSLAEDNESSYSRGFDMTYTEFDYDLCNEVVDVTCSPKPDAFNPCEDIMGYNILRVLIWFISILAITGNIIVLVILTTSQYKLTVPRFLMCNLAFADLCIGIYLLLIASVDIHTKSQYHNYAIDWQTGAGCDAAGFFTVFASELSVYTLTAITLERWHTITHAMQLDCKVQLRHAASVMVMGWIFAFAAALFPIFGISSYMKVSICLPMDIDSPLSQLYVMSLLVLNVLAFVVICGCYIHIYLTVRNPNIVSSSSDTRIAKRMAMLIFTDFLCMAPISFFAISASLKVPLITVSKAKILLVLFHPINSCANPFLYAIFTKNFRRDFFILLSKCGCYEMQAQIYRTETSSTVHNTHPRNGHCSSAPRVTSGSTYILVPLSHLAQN
# Biological target: human FSH receptor (Homo sapiens, UniProt P23945)
# Assay: hFSHR CHO cAMP assay (rhFSHR-cLUC cells, FSH-stimulated cAMP, radioimmunoassay)
# Details: read-out: EC50 hFSHR CHO cAMP; inhibition of cAMP produced by EC70 dose of FSH (4.85 nM); maximum concentration 50 μM
row,Structure (SMILES),EC50 [µM]
1,CS(=O)(=O)Nc1ccccc1CCN(CC(=O)NCc1ccc(CN)cc1)S(=O)(=O)c1ccc(-c2ccccc2Cl)cc1,> 50
2,Cc1ccccc1-c1ccc(C(=O)N(CC(=O)NCc2ccc(CN)cc2)C[C@H](C)c2ccccc2)cc1,> 50
3,COc1ccccc1CCN(CC(=O)NCc1ccc(CN)cc1)S(=O)(=O)c1cccc(-c2ccc3c(c2)OCO3)c1,2.44
4,COc1ccccc1CN(CC(=O)N1CCNCC1)S(=O)(=O)c1ccc(-c2cccs2)cc1,≥ 50
5,COc1ccccc1CCN(CC(=O)N1CCNCC1)S(=O)(=O)c1ccc(-c2ccncc2)cc1,24.8
6,COc1ccccc1CCN(CC(=O)NCc1ccc(CN)cc1)S(=O)(=O)c1ccc(OC(F)(F)F)cc1,1.08
7,COc1ccccc1CCN(CC(=O)NCc1ccc(CN)cc1)S(=O)(=O)c1ccc(-c2ccc(Cl)cc2)s1,6.95
8,C[C@@H](CN(CC(=O)NCc1ccc(CN)cc1)S(=O)(=O)c1ccc(-c2c(F)cccc2F)cc1)c1ccccc1,0.2
9,NCCCCCCNC(=O)CN(CCc1cccc(C(F)(F)F)c1)S(=O)(=O)c1ccc(-c2ccccc2Cl)cc1,0.25
10,NCCCCCCNC(=O)CN(CCc1ccccc1Cl)S(=O)(=O)c1ccc(-c2ccccc2Cl)cc1,0.14
11,C[C@H](CN(CC(=O)NCc1ccc(CN)cc1)C(=O)Nc1ccc(-c2ccccc2)cc1)c1ccccc1,≥ 50
12,COc1ccc(-c2ccc(S(=O)(=O)N(CCc3ccccc3OC)CC(=O)N3CCNCC3)cc2)cc1,20.4
13,COc1ccccc1CCN(CC(=O)NCc1ccc(CN)cc1)S(=O)(=O)c1cccc(-c2cccc3ccccc23)c1,17.1
14,Cc1ccc(-c2ccc(S(=O)(=O)N(CC(=O)NCc3ccc(CN)cc3)C[C@@H](C)c3ccccc3)cc2)cc1,0.62
15,COc1ccccc1CN(CC(=O)NCc1cccc(CN)c1)S(=O)(=O)c1ccc(-c2ccccc2OC)cc1,17.5
16,Cc1ccccc1-c1ccc(S(=O)(=O)N(CC(=O)N2CCC(C3CCNCC3)CC2)C[C@H](C)c2ccccc2)cc1,0.78
17,COc1ccccc1CN(CC(=O)N1CCNCC1)S(=O)(=O)c1ccc(-c2ccsc2)cc1,47.8
18,COc1ccccc1CCN(CC(=O)NCc1ccc(CN)cc1)S(=O)(=O)c1ccc(-c2ccccc2OC)s1,2.08
19,COc1ccccc1CCN(CC(=O)NCc1ccc(CN)cc1)S(=O)(=O)c1ccccc1-c1ccsc1,1.77
20,NCCCCCCNC(=O)CN(CCCc1ccccc1)S(=O)(=O)c1ccc(-c2ccccc2Cl)cc1,1.24

row,Structure (SMILES),EC50 [µM]
1,COc1cccc(-c2ccc(S(=O)(=O)N(CCc3ccccc3OC)CC(=O)N3CCNCC3)cc2)c1,8.96
2,NCCCCCCNC(=O)CN(CCc1ccc(Cl)cc1Cl)S(=O)(=O)c1ccc(-c2ccccc2Cl)cc1,0.08
3,C[C@H](CN(CC(=O)NC1CCC(CC2CCC(N)CC2)CC1)S(=O)(=O)c1ccc(-c2ccccc2Cl)cc1)c1ccccc1 (some centres unmarked),2.55
4,COc1ccc(OC)c(-c2ccc(S(=O)(=O)N(CCc3ccccc3OC)CC(=O)NCc3ccc(CN)cc3)s2)c1,2.18
5,C[C@@H](CN(CC(=O)NCc1ccc(CN)cc1)S(=O)(=O)c1ccc(-c2ccc(Cl)cc2)cc1)c1ccccc1,4.75
6,NCc1ccc(CNC(=O)CN(C2CC2c2ccccc2)S(=O)(=O)c2ccc(-c3cccc(F)c3)cc2)cc1 (centres unmarked),4.36
7,COc1ccccc1CCN(CC(=O)NCc1ccc(CN)cc1)S(=O)(=O)c1ccc(-c2ccc(Cl)cc2Cl)s1,≥ 50
8,NCCCCCCNC(=O)CN(CCC1=CCCCC1)S(=O)(=O)c1ccc(-c2ccccc2Cl)cc1,1.37
9,CCOc1ccccc1CCN(CC(=O)NCCCCCCN)S(=O)(=O)c1ccc(-c2ccccc2Cl)cc1,0.29
10,COc1ccccc1CCN(CC(=O)NCc1ccc(CN)cc1)S(=O)(=O)c1ccccc1-c1ccccc1,4.46
11,COc1ccccc1CCN(CC(=O)NCc1ccc(CN)cc1)S(=O)(=O)c1ccc(C(C)(C)C)cc1,31.2
12,COc1ccccc1CCN(CC(=O)NCCCCCCN)S(=O)(=O)c1ccc(-c2ccccc2OC)cc1,0.37
13,COc1ccccc1CCN(CC(=O)NCc1ccc(CN)cc1)S(=O)(=O)c1ccccc1-c1cccc(C#N)c1,≥ 50
14,CC(=O)Nc1ccccc1CCN(CC(=O)NCc1ccc(CN)cc1)S(=O)(=O)c1ccc(-c2ccccc2Cl)cc1,20
15,COc1ccccc1CCN(CC(=O)NCc1ccc(CN)cc1)S(=O)(=O)c1cccc(-c2ccccc2OC)c1,4.11
16,C[C@@H](CN(CC(=O)NCc1ccc(CN)cc1)S(=O)(=O)c1ccc(-c2ccccc2C(F)(F)F)cc1)c1ccccc1 [304],0.3
17,NCCCCCCNC(=O)CN(CC(c1ccccc1)c1ccccc1)S(=O)(=O)c1ccc(-c2ccccc2Cl)cc1,5.29
18,NCc1ccc(CNC(=O)CN(CCc2ccccc2)S(=O)(=O)c2ccc(-c3ccccc3Cl)cc2)cc1,0.37
19,C[C@@H](CN(CC(=O)NCc1ccc(CN)cc1)S(=O)(=O)c1ccccc1)c1ccccc1,1.54
20,COc1ccccc1CCN(CC(=O)NCc1ccc(CN)cc1)S(=O)(=O)c1ccc(-c2cccc(C(F)(F)F)c2)s1,6.88

row,Structure (SMILES),EC50 [µM]
1,COc1ccccc1CN(CC(=O)NCC1CCCC(CN)C1)S(=O)(=O)c1ccc(-c2ccccc2OC)cc1 (centres unmarked),0.37
2,C[C@H](CN(CC(=O)NCc1ccc(CN)cc1)S(=O)(=O)c1ccc(-c2ccccc2)cc1)c1ccccc1,0.35
3,C[C@@H](CN(CC(=O)NCc1ccc(CN)cc1)S(=O)(=O)c1ccc(-c2ccccc2F)cc1)c1ccccc1 [301],0.15
4,NCc1ccc(CNC(=O)CN(CCc2ccc(Cl)c(Cl)c2)S(=O)(=O)c2ccc(-c3ccccc3Cl)cc2)cc1,0.29
5,COc1ccccc1CCN(CC(=O)NCc1ccc(CN)cc1)S(=O)(=O)c1cccc(-c2ccccc2Cl)c1,5.85
6,COc1ccccc1CCN(CC(=O)N1CCNCC1)S(=O)(=O)c1ccc(-c2cccc(F)c2)cc1,8.99
7,C[C@@H](CN(CC(=O)NC1CCC(CC2CCC(N)CC2)CC1)S(=O)(=O)c1ccc(-c2cccc(F)c2)cc1)c1ccccc1 (some centres unmarked),3.46
8,COc1ccccc1CCN(CC(=O)NCc1ccc(CN)cc1)S(=O)(=O)c1cccc(-c2cccc(F)c2)c1,2.39
9,Cc1noc(C)c1-c1ccc(S(=O)(=O)N(CC(=O)NCc2ccc(CN)cc2)C[C@H](C)c2ccccc2)cc1,0.73
10,COc1ccccc1CN(CC(=O)N1CCNCC1)S(=O)(=O)c1ccc(-c2ccccc2F)cc1,≥ 50
11,NCc1ccc(CNC(=O)CN(CCc2ccc3c(c2)OCO3)S(=O)(=O)c2ccc(-c3ccccc3Cl)cc2)cc1,0.77
12,COc1ccccc1CCN(CC(=O)NCc1ccc(CN)cc1)S(=O)(=O)c1ccccc1-c1ccc(Cl)cc1Cl,7.99
13,C[C@@H](CN(CC(=O)NCc1ccc(CN)cc1)S(=O)(=O)c1ccc(-c2ccc(C=O)o2)cc1)c1ccccc1,9.05
14,COc1ccccc1CN(CC(=O)NCc1cccc(CN)c1)S(=O)(=O)c1ccc(-c2ccccc2Cl)cc1,0.79
15,COc1ccccc1CCN(CC(=O)NCc1ccc(CN)cc1)S(=O)(=O)c1ccccc1-c1cccc(C)c1,5.17
16,COc1ccccc1CCN(CC(=O)N1CCNCC1)S(=O)(=O)c1ccc(-c2cccc3ccccc23)cc1,8.34
17,COc1ccccc1CCN(CC(=O)NCc1ccc(CN)cc1)S(=O)(=O)c1ccc(-c2ccc3c(c2)OCO3)s1,3.88
18,COc1ccccc1CCN(CC(=O)NCc1ccc(CN)cc1)S(=O)(=O)c1cccc(-c2cccc(C)c2)c1,4.19
19,COc1ccccc1CCN(CC(=O)NCc1ccc(CN)cc1)S(=O)(=O)c1ccc(-c2ccc(C(F)(F)F)cc2)s1,34.4
